Reference: patent US20100249223A1, “NEW USE FOR CANNABINOID-CONTAINING PLANT EXTRACTS” (priority 2007, published 2010)

Chains of the proteins cited; added tags and fusions are not shown.
UniProt Q6RI86, whole entry: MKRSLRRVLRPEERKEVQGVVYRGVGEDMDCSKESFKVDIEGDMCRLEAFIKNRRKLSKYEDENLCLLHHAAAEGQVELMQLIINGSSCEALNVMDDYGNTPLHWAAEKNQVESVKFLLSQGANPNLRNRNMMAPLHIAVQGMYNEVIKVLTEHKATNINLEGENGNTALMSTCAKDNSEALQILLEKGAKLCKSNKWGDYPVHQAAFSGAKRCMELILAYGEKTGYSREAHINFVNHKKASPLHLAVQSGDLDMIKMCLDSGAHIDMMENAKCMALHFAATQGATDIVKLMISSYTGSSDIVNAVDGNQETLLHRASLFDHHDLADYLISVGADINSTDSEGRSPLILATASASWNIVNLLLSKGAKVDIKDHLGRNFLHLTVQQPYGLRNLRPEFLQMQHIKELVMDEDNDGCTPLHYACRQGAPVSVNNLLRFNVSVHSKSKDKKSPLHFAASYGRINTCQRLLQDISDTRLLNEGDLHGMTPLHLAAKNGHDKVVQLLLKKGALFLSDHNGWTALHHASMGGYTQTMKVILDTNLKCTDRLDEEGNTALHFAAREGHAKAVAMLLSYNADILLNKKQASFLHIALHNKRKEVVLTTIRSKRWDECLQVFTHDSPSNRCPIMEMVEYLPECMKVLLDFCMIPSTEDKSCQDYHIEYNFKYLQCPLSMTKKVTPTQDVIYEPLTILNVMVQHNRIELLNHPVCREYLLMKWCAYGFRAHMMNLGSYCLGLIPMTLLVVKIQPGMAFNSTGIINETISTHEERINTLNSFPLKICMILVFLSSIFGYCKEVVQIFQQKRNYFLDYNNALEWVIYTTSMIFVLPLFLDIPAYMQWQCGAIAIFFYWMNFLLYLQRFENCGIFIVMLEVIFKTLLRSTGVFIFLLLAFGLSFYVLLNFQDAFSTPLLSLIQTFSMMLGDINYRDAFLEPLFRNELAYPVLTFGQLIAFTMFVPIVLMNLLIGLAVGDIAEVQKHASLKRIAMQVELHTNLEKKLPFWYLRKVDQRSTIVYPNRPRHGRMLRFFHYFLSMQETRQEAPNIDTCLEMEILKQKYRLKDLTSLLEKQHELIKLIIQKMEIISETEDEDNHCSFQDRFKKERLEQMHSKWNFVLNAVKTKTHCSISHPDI

Biological target: T1, TRPA1 channel (Rattus norvegicus, UniProt Q6RI86)
T1 construct: expressed in transfected cells
Assay: Intracellular Ca2+ elevation in HEK-293 cells over-expressing rat TRPA1
Assay type: cell-based
Details: TRPA1-HEK-293 cells, Fluo-4; read-out: -logEC50% (M) for the elevation of [Ca2+]i (converted)
Method: The applicants have conducted experiments using cannabinoid-containing plant extracts on rat recombinant TRPV1, TRPM8 channels and TRPA1 (also known as ANKTM1) channels, both were stably expressed in HEK293 cells. The TRPA1 channel is the receptor for mustard oil isothiocyanates and other plant natural products such as cinnamaldehyde. The TRPM8 channel is the receptor from menthol and icilin. The intracellular Ca^2+ concentration was determined before and after the addition of various concentrations of test compounds.
[…]. For the experiments with the TRPM8 channels menthol and icilin were used to activate the channels. For the experiments with the TRPV1 channels ionomycin was used to activate the channels. The cannabinoid-containing plant extracts were produced from cannabis plants using the subcritical CO2 extraction technique as described in the applicants granted United Kingdom patent GB2391865. […]
HEK293 (human embryonic kidney) cells were plated on 100 mm diameter Petri dishes and transfected at about 80% confluence with Lipofectamine 2000 (Invitrogen) using a plasmid containing the rat TRPA1, TRPV1 or TRPM8 cDNA, according to the manufacturer's protocol. […] Stable transfection was checked by quantitative real time-PCR (RT-PCR). […]

SMILES: C=CCN=C=S [Mustard oil (allyl isothiocyanate), allyl isothiocyanate, reference compound]
- EC50: 2.51e-06 M
